## Antibody variant affinities, Ab-14 light chain, assay 1

Values reported by Engelhart et al. 2022, doi:10.1038/s41597-022-01779-4 (FLAb copy).

Antigen: PDVDLGDISGINAS, a 14-residue peptide of the SARS-CoV-2 spike HR2 region.

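The parent was found by panning a naive human phage display library on the peptide. The library (AAYL50) carries one to three amino acid substitutions per variant, with no insertions or deletions. The assay is AlphaSeq: two haploid yeast populations carry antibody and antigen on their surface. The frequency of each diploid, read from paired DNA barcodes, reflects how well the two displayed proteins bind. Read counts were normalised to the haploid input and turned into Kd by a linear fit to BCL2-family pairs of known affinity, for each replicate. The assay was run in three technical replicates.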

The variants keep the heavy chain, the linker and the frameworks of Ab-14 (scFv order VH, three GGGGS repeats, VL).
VH: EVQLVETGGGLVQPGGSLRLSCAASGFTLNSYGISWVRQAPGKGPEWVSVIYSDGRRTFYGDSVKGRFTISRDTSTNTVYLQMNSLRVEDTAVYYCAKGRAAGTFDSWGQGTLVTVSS
VL: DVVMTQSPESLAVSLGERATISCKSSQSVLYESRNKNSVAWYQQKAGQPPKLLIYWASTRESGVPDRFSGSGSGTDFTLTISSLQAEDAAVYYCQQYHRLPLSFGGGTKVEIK

Changes read parent residue, position, new residue, counted from the first residue of the VL shown.
Scale: log10 of Kd in nM, estimated from mating counts; low values are strong binders.
A mean of the replicates is given; it leaves out those without a signal.
A pair that was not seen in any replicate is written "not detected"; this usually means weak binding, but a binder can also be missed.
As a blank, each scFv also met three strains without target: over library AAYL50, 18% of these pairings were detected, typically at 4.19 and seldom below 2.99. The control count says in how many pairings with the empty strains this scFv gave a signal.

changes | mean log10 Kd (nM) | detected | control signals
Q27Y Y31K Q95H | 4.50 | 2 of 3 | 7 of 9
S28F R60G L102E | not detected | 0 of 3 | 0 of 9
S26F L100M | 1.84 | 3 of 3 | 1 of 9
Y97D P101E L102T | 4.07 | 3 of 3 | 5 of 9
E32W N35T K36A | 1.85 | 3 of 3 | 1 of 9
V29F L30A S38H | 1.60 | 3 of 3 | 5 of 9
N37S Y97E L102I | 4.05 | 2 of 3 | 3 of 9
S58W E61S | 2.61 | 3 of 3 | 0 of 9
K36N N37D S103F | 2.12 | 3 of 3 | 5 of 9
S26V S38Y A57I | not detected | 0 of 3 | 2 of 9
W56F A57W | not detected | 0 of 3 | 1 of 9
K24W Q95M H98R | 1.38 | 3 of 3 | 0 of 9
V29E E32S A40F | 3.81 | 2 of 3 | 5 of 9
S58G R60D | not detected | 0 of 3 | 4 of 9
S58P E61Y Q96E | 3.12 | 1 of 3 | 0 of 9
Y31N R60Y R99L | 1.67 | 2 of 3 | 0 of 9
N37C T59Y P101H | 3.38 | 1 of 3 | 0 of 9
E32F A40I | not detected | 0 of 3 | 1 of 9
S28R S38W | not detected | 0 of 3 | 0 of 9
K36P Q95S L100H | 1.34 | 3 of 3 | 0 of 9
Q27K K36T N37F | 2.12 | 3 of 3 | 0 of 9
Q27G T59K L100Q | 1.66 | 3 of 3 | 4 of 9
N37G S38A R60D | 3.98 | 1 of 3 | 1 of 9
K24H E32V A57I | not detected | 0 of 3 | 1 of 9
Q95M Q96I L100K | not detected | 0 of 3 | 1 of 9
N35E A57K R60H | 3.45 | 1 of 3 | 1 of 9
Y31F N35L Y97D | not detected | 0 of 3 | 1 of 9
S26A S28M Y97C | not detected | 0 of 3 | 0 of 9
S26V Y31S H98K | not detected | 0 of 3 | 0 of 9
L30N E32S V39P | not detected | 0 of 3 | 2 of 9
L30K K36R Q96H | 2.16 | 3 of 3 | 5 of 9
S38F Y97G L102E | not detected | 0 of 3 | 0 of 9
S58A R60A | not detected | 0 of 3 | 2 of 9
Y31D W56K T59L | 0.50 | 3 of 3 | 3 of 9
S26C E61S | 2.15 | 3 of 3 | 0 of 9
L30G R34S Y97P | 0.12 | 3 of 3 | 2 of 9
S25G R34Q | 1.02 | 3 of 3 | 3 of 9
V39I A40K T59M | not detected | 0 of 3 | 2 of 9
V39S W56T S58W | 5.16 | 1 of 3 | 4 of 9
A40S T59I | 2.29 | 3 of 3 | 2 of 9
N37L Q96W H98N | 3.62 | 2 of 3 | 0 of 9
A40F R60C P101M | not detected | 0 of 3 | 0 of 9
R34H S62W S103M | 1.17 | 3 of 3 | 2 of 9
Y31R W56Q R60V | 1.54 | 3 of 3 | 0 of 9
Q27L W56Y E61N | 0.39 | 3 of 3 | 0 of 9
S28C N37V Q95S | 4.07 | 1 of 3 | 0 of 9
Q27A E32D R60S | not detected | 0 of 3 | 0 of 9
K24T Q27L T59H | 4.31 | 2 of 3 | 1 of 9
S25D S26M | 1.31 | 3 of 3 | 5 of 9
N35Y S103T | 2.40 | 3 of 3 | 0 of 9
S25D T59H Q95R | 1.61 | 3 of 3 | 4 of 9
Q27A S28G R34F | 0.76 | 3 of 3 | 0 of 9
S28C T59N R60D | 2.09 | 1 of 3 | 1 of 9
S38N A40L Y97P | 4.73 | 1 of 3 | 2 of 9
A57R S58M L100V | not detected | 0 of 3 | 2 of 9
K24T R60C Q95N | 4.72 | 2 of 3 | 3 of 9
S28W S103Q | 2.50 | 2 of 3 | 0 of 9
R34M V39G | not detected | 0 of 3 | 1 of 9
K24E S28F R60K | 4.93 | 1 of 3 | 5 of 9
Q27C S28K S33C | not detected | 0 of 3 | 0 of 9
E32S R99G L100N | 0.85 | 3 of 3 | 2 of 9
S26C N37F R99I | 3.69 | 3 of 3 | 2 of 9
S28H S58C R60I | 4.90 | 2 of 3 | 3 of 9
N35Y T59W Y97H | 2.91 | 2 of 3 | 0 of 9
Y31H L102T | 4.55 | 2 of 3 | 4 of 9
T59V L100E S103W | not detected | 0 of 3 | 1 of 9
S26W N37S | 2.67 | 3 of 3 | 7 of 9
E32Q E61W Q95L | 2.79 | 1 of 3 | 0 of 9
V29T R34D E61H | 0.65 | 3 of 3 | 2 of 9
S62Y Y97E P101V | not detected | 0 of 3 | 0 of 9
V29K S33W W56E | -0.20 | 3 of 3 | 0 of 9
S62H Q96A H98Q | 3.95 | 1 of 3 | 3 of 9
Q27A E32M H98T | 1.86 | 2 of 3 | 0 of 9
S25I K36H V39T | 2.57 | 3 of 3 | 4 of 9
K36D W56Q R99H | 1.17 | 3 of 3 | 2 of 9
K24R Q95T L102P | 4.99 | 2 of 3 | 4 of 9
A57V H98E L102A | not detected | 0 of 3 | 1 of 9
V29D R34D | 0.41 | 3 of 3 | 1 of 9
Q27T L100A | 4.33 | 1 of 3 | 1 of 9

A selection of 11 entries from above:

changes | mean log10 Kd (nM) | detected | control signals
A40F R60C P101M | not detected | 0 of 3 | 0 of 9
Q27L W56Y E61N | 0.39 | 3 of 3 | 0 of 9
S38F Y97G L102E | not detected | 0 of 3 | 0 of 9
S26W N37S | 2.67 | 3 of 3 | 7 of 9
S25I K36H V39T | 2.57 | 3 of 3 | 4 of 9
Q27A S28G R34F | 0.76 | 3 of 3 | 0 of 9
S26F L100M | 1.84 | 3 of 3 | 1 of 9
K36D W56Q R99H | 1.17 | 3 of 3 | 2 of 9
N35Y S103T | 2.40 | 3 of 3 | 0 of 9
E32Q E61W Q95L | 2.79 | 1 of 3 | 0 of 9
S28H S58C R60I | 4.90 | 2 of 3 | 3 of 9